# Molecular target: 5-HT1A (Homo sapiens, UniProt P08908)
# Sequences of proteins named here, by UniProt entry; tags and fusion partners are left off.
# UniProt P08908, whole entry, species assumed: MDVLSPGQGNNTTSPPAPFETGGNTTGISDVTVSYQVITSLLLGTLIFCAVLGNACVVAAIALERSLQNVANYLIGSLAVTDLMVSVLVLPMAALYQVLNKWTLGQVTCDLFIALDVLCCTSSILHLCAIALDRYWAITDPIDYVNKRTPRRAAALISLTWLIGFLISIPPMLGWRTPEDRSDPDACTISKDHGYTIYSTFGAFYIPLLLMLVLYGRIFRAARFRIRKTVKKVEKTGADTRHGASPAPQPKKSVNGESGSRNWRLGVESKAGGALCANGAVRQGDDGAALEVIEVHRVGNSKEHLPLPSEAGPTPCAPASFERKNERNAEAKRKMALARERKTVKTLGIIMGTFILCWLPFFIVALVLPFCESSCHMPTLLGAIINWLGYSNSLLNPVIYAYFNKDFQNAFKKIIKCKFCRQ
# Assay: 5-HT1A [35S]GTPγS, agonist
# Type: biochemical
# Conditions: agonist mode
compound,measurement,value
"COCCC(=O)N[C@H]1CC[C@H](CCN2CCN(c3cccc(OC)c3F)CC2)CC1 [Compound 13c, N-(trans-4-(2-(4-(2-Fluoro-3-methoxyphenyl)piperazin-1-yl)ethyl)cyclohexyl)-3-methoxypropanamide]",5-HT1A [35S]GTPγS Emax ± SEM,86.6 ± 3.5%
